Tests used:
Calcitonin receptor [1] = biological target: T1, Calcitonin receptor (Rattus norvegicus, UniProt P32214); experiment: Displacement of 125I-Calcitonin from rat CTR expressed in Baby hamster kidney cell membrane incubated for 120 mins by SPA method; assay type: cell membranes
T1 sequence (P32214 whole entry): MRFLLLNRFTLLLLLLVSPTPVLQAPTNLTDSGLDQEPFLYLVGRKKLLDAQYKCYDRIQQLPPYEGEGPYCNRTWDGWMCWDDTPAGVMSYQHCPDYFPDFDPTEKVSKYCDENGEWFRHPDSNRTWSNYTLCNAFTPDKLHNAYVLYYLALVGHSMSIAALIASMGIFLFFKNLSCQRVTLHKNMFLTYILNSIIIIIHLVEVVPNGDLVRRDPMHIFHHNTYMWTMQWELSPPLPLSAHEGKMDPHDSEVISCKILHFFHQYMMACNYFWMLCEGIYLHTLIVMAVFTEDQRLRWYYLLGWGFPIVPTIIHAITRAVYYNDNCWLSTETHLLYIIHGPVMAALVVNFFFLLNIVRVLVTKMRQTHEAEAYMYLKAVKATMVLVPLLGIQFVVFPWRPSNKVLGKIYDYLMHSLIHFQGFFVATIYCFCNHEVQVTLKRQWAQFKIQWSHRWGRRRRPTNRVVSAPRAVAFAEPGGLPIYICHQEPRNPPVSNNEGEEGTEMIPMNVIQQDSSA

[2] = biological target: T2, Amylin receptor AMY3; CALCR/RAMP3 (Homo sapiens, UniProt O60896+P30988); experiment: Displacement of 125I-rat amylin from human AMY3R complex of CTR/RAMP3 expressed in Baby hamster kidney cell membrane incubated for 120 mins by SPA method; assay type: cell membranes
T2 sequence (P30988 whole entry): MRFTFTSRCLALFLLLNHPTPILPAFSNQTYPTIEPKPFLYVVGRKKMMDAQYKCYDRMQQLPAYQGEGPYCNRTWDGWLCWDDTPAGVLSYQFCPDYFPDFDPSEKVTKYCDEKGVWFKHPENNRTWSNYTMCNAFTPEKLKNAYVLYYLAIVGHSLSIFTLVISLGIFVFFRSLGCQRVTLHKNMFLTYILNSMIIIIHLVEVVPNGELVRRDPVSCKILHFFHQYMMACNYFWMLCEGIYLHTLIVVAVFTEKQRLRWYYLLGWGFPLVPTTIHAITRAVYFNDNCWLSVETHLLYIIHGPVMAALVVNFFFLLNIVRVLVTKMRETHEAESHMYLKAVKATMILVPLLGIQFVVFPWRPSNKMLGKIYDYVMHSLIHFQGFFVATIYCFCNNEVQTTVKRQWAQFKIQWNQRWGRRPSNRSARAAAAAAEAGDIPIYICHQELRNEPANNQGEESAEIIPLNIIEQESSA
T2 sequence (O60896 whole entry): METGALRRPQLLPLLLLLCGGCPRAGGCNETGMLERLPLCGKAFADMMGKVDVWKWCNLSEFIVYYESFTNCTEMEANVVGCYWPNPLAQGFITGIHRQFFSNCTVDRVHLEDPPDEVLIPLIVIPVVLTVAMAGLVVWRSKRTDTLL

[3] = biological target: T3, Amylin receptor AMY3; CALCR/RAMP3 (Rattus norvegicus, UniProt P32214+Q9JJ73); experiment: Displacement of 125I-rat amylin from rat AMY3R complex of CTR/RAMP3 expressed in Baby hamster kidney cell membrane incubated for 120 mins by SPA method; assay type: cell membranes
T3 sequence (P32214 whole entry): T1 sequence (P32214 whole entry)
T3 sequence (Q9JJ73 whole entry): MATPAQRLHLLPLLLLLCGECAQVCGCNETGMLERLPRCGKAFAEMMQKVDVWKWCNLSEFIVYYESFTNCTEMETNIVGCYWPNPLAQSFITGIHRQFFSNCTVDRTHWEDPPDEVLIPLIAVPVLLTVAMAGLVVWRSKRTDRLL

Calcitonin receptor [4] = biological target: T4, Calcitonin receptor (Homo sapiens, UniProt P30988); experiment: Displacement of 125I-Calcitonin from human CTR expressed in Baby hamster kidney cell membrane incubated for 120 mins by SPA method; assay type: cell membranes
T4 sequence (P30988 whole entry): T2 sequence (P30988 whole entry)

[5] = biological target: T2, Amylin receptor AMY3; CALCR/RAMP3; experiment: Agonist activity at human AMY3R complex of CTR/RAMP3 transduced in human HeLa cells by cAMP assay; assay type: functional, cell-based

SMILES | IC50 (Calcitonin receptor [1]) [nM] | IC50 [2] [nM] | IC50 [3] [nM] | IC50 (Calcitonin receptor [4]) [nM] | EC50 [5] [nM]
CC[C@H](C)[C@H](NC(=O)[C@H](C)NC(=O)CNC(=O)[C@H](Cc1ccccc1)NC(=O)[C@H](CC(N)=O)NC(=O)[C@@H]1CCCN1C(=O)[C@H](CO)NC(=O)[C@H](CO)NC(=O)[C@H](Cc1cnc[nH]1)NC(=O)[C@H](CCCNC(=N)N)NC(=O)[C@H](CC(C)C)NC(=O)[C@H](Cc1ccccc1)NC(=O)[C@H](CC(N)=O)NC(=O)[C@H](C)NC(=O)[C@H](CC(C)C)NC(=O)[C@H](CCCNC(=N)N)NC(=O)[C@H](CCC(N)=O)NC(=O)[C@@H](NC(=O)[C@H](C)NC(=O)[C@@H]1CSSC[C@H](NC(=O)[C@@H](N)CCCCN)C(=O)N[C@@H](CC(N)=O)C(=O)N[C@@H]([C@@H](C)O)C(=O)N[C@@H](C)C(=O)N[C@@H]([C@@H](C)O)C(=O)N1)[C@@H](C)O)C(=O)N1CCC[C@H]1C(=O)N[C@@H](CO)C(=O)N[C@@H](CO)C(=O)N[C@H](C(=O)N[C@@H](CC(N)=O)C(=O)N[C@H](C(=O)NCC(=O)N[C@@H](CO)C(=O)N[C@@H](CCCNC(=N)N)C(=O)N[C@H](C(=O)N[C@@H](Cc1ccc(O)cc1)C(N)=O)[C@@H](C)O)C(C)C)[C@@H](C)O | 32.7 | 0.213 | 0.372 | 21.1 | 
CC[C@H](C)[C@H](NC(=O)[C@H](C)NC(=O)CNC(=O)[C@H](Cc1ccccc1)NC(=O)[C@H](CC(N)=O)NC(=O)[C@@H]1CCCN1C(=O)[C@H](CO)NC(=O)[C@H](CO)NC(=O)[C@H](Cc1c[nH]cn1)NC(=O)[C@H](CCCNC(=N)N)NC(=O)[C@H](CC(C)C)NC(=O)[C@H](Cc1ccccc1)NC(=O)[C@H](CC(=O)O)NC(=O)[C@H](C)NC(=O)[C@H](CC(C)C)NC(=O)[C@H](CCCNC(=N)N)NC(=O)[C@H](CCC(N)=O)NC(=O)[C@@H](NC(=O)[C@H](C)NC(=O)[C@@H]1CSSC[C@H](NC(=O)[C@@H](N)CCCCN)C(=O)N[C@@H](CC(N)=O)C(=O)N[C@@H]([C@@H](C)O)C(=O)N[C@@H](C)C(=O)N[C@@H]([C@@H](C)O)C(=O)N1)[C@@H](C)O)C(=O)N1CCC[C@H]1C(=O)N[C@@H](CO)C(=O)N[C@@H](CO)C(=O)N[C@H](C(=O)N[C@@H](CC(N)=O)C(=O)N[C@H](C(=O)NCC(=O)N[C@@H](CO)C(=O)N[C@@H](CCCNC(=N)N)C(=O)N[C@H](C(=O)N[C@@H](Cc1ccc(O)cc1)C(N)=O)[C@@H](C)O)C(C)C)[C@@H](C)O |  |  |  |  | 0.0759

Source: ChEMBL document CHEMBL5523739, “NN1213 - A Potent, Long-Acting, and Selective Analog of Human Amylin” (J Med Chem, 2024)
